Reference: ChEMBL document CHEMBL3297697, “Property- and structure-guided discovery of a tetrahydroindazole series of interleukin-2 inducible T-cell kinase inhibitors” (J Med Chem, 2014)

target: T1, Tyrosine-protein kinase ITK/TSK (Homo sapiens, UniProt Q08881)
T1 sequence (Q08881 whole entry): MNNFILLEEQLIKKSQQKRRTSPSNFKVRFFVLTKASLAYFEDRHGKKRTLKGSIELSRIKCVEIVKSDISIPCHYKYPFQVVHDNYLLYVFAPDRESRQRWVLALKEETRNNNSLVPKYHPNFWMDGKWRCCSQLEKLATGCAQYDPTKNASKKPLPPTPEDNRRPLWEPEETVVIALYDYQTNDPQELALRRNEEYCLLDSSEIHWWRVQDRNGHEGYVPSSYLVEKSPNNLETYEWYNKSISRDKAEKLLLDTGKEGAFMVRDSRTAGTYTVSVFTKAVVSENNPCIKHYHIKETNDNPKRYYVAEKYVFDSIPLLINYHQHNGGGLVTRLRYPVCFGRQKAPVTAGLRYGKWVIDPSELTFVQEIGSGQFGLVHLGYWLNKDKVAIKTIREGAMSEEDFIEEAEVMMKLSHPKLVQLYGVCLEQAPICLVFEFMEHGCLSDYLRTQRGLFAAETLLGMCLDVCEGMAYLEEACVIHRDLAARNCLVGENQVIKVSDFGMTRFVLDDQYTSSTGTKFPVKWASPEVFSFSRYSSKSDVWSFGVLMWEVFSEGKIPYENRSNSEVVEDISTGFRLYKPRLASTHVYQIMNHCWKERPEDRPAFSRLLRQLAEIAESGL

Row | Structure (SMILES) | Ki [nM]
1 | CC1(CO)CCc2c(C(=O)Nc3cnn(Cc4ccccc4)c3)n[nH]c2C1 (racemic) | 8
2 | O=C(Nc1cnn(Cc2ccccc2)c1)c1n[nH]c2c1CCC1(CCOC1)C2 (configuration not stated) | 55

organism: Homo sapiens; assay: Selectivity ratio of Ki for human His-tagged full length AURKAto Ki for GST-tagged full length ITK (unknown origin)

Row | Ratio Ki | Structure (SMILES)
3 | 6 | CC1CCc2c(C(=O)Nc3cnn(Cc4ccccc4)c3)n[nH]c2C1 (configuration not stated)
4 | 5 | O=C(Nc1cnn(Cc2ccccc2)c1)c1n[nH]c2c1CCC(F)(F)C2
5 | 50 | CC1CCc2c(C(=O)Nc3cnn(Cc4ccccc4)c3)n[nH]c2C1 (racemic) [listing 1 of 2 here]
6 | 90 | CC1(C)CCc2c(C(=O)Nc3cnn(Cc4ccccc4)c3)n[nH]c2C1

Row | Structure (SMILES) | Ratio Ki
7 | O=C(Nc1cnn(Cc2ccccc2)c1)c1n[nH]c2c1CCC1(CCOC1)C2 (racemic) | > 100

target: T1, Tyrosine-protein kinase ITK/TSK; remark: another data set of the same source

Row | IC50 [nM] | Structure (SMILES)
8 | 7100 | O=C(Nc1cnn(Cc2ccccc2)c1)c1n[nH]c2c1CC1CC1C2 (racemic)
9 | 930 | CC1CCc2c(C(=O)Nc3cnn(Cc4ccccc4)c3)n[nH]c2C1 (racemic) [listing 2 of 2 here]
10 | 950 | O=C(Nc1cnn(Cc2ccccc2)c1)c1n[nH]c2c1CCC1(CC1)C2
11 | 5200 | CC1(C)CCc2c(C(=O)Nc3cnn(Cc4ccccc4)c3)n[nH]c2C1

Row | Structure (SMILES) | IC50 [nM]
12 | CC1(CO)CCc2c(C(=O)Nc3cnn(Cc4ccccc4)c3)n[nH]c2C1 (racemic) | 530
